Values quoted from earlier work, collected in patent publication US9150585B2, “Analogs of camptothecin” (FL Therapeutics, LLC, priority 2012, dated 2015).

Conditions: Prijovich et al. 2003, cited from earlier work

What does the source list for 9-Aminocamptothecin glucuronide?
blood half-life (active lactone ring form in blood): about 50 minutes; lactone ring form at equilibrium in blood (blood): about 20%
